Earlier results as cited in publication PMC10917278, “Structural insights into the modulation Of SOD1 aggregation By a fungal metabolite Phialomustin-B: Therapeutic potential in ALS” (PLOS ONE, 2024).

Test system: ALS patients
Conditions: cited from earlier work

**Q.** Which “prolongation of survival duration” value does the source give for `Nc1nc2ccc(OC(F)(F)F)cc2s1` [Riluzole] here?
**A.** approximately three
